Usually viability stands for a read-out of living cells in per cent, often relative to untreated cells.

Sequences of proteins named here, by UniProt entry; tags and fusion partners are left off. A line that says so, or that is headed by a name, gives the form on record, which may keep a tag or linker.
UniProt P13569, with tags, fused parts or gaps F508del: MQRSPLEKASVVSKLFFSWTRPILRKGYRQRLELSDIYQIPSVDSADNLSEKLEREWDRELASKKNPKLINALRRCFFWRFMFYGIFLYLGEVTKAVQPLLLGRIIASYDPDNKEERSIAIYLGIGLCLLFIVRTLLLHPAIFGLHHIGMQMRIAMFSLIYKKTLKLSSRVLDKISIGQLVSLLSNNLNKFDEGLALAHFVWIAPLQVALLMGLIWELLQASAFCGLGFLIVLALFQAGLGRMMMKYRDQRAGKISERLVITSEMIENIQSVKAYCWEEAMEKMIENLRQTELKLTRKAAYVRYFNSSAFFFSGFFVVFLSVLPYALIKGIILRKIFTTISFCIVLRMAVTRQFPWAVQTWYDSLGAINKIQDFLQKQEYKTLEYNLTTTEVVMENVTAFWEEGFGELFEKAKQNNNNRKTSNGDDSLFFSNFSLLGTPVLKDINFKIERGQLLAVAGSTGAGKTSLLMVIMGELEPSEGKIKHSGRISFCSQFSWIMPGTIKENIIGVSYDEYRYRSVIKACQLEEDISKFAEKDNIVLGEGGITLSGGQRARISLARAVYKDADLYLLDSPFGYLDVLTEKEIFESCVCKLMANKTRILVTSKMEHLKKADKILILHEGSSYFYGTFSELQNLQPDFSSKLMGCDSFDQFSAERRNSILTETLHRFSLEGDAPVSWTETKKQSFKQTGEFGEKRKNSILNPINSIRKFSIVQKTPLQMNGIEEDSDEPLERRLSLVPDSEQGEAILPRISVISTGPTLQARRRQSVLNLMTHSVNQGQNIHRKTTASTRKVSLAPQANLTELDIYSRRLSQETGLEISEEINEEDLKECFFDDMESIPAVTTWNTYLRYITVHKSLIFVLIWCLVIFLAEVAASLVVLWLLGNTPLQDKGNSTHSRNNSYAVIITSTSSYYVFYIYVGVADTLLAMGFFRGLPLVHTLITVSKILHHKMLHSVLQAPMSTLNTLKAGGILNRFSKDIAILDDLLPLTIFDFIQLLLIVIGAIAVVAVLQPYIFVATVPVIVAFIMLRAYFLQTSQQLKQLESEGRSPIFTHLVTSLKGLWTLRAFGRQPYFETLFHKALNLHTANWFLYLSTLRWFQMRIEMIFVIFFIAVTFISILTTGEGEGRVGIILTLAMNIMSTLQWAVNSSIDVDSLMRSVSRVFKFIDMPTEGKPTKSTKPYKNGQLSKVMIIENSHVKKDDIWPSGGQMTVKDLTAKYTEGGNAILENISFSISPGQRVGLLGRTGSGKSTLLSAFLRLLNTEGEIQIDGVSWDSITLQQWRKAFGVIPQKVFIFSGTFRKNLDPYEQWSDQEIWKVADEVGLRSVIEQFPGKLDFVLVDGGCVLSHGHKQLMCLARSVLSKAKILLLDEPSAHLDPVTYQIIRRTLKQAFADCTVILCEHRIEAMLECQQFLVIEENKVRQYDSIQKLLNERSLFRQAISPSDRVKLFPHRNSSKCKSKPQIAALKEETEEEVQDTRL

Each structure is given as a SMILES string. Where “and” joins values, the source holds several entries; their conditions need not be identical. Equal entries are not always repeated. The whole screen tested about 10,000 compounds, of which about 15 (0.1%) were called active.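 How the source made its calls: active means highest signal at least 8 times the median of untreated cell-only control wells at some dose; inactive means the rest.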 The list is a sample of the results.

Experimental findings from PubChem BioAssay AID1224863 (Southern Research Institute, 2016) are described below.

Assay [1] can be described thus: compounds raising F508del-CFTR protein level – cell-based, HeLa F508del-CFTR, immunofluorescence, viability, primary screen (AID 1224863).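 On fold increase: total CFTR protein by anti-CFTR immunofluorescence in fixed cells.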 As to conditions: immunofluorescence total CFTR, 24 h, stronger effect = higher value; min viability: measured here: HeLa viability, alamarBlue, dose 20, library dosed in µg/mL unless noted; viability: measured here: primary viability 10 ug/mL, library dosed in µg/mL unless noted. In general terms: Alamar Blue is a resazurin reagent that responds to reducing activity.

Assay [2] addresses Cystic fibrosis transmembrane conductance regulator (Homo sapiens) (UniProt P13569). The assay is described as above. As to conditions: immunofluorescence total CFTR, 24 h; fold increase: measured here: primary screen 10 ug/mL, library dosed in µg/mL, stronger effect = higher value unless noted; max fold increase: dose 10, library dosed in µg/mL, stronger effect = higher value unless noted; outcome: library dosed in µg/mL unless noted.

On to `Clc1ccc(-n2nnnc2SCCCc2nc3ccccc3o2)cc1`, for which, in assay [1], the viability was 84%. In assay [2], the fold increase came to 0.85 and the compound was called inactive.

As to `Cc1nn(-c2ccccc2)c2c1CC(C#N)(c1nc3ccccc3s1)C1CCCN21` (stereo unspecified), in assay [1], the viability stood at 89%. In addition, in assay [2], the fold increase was 1.29 and the compound was classed as inactive.

As for `O=S(=O)(NCCc1ccc2c(c1)OCCO2)c1ccc2c(c1)CCC2`, the viability in assay [1] worked out at 95%. In assay [2], the fold increase amounted to 0.9 and the compound was classed as inactive.

For `C=CCn1c(SC(C)c2nnnn2-c2ccccc2)nnc1-c1ccoc1C` (stereo unspecified), the viability in assay [1] worked out at 93%. In addition, in assay [2], the fold increase turned out to be 1.01 and the outcome was inactive.

`Cc1nc(N2CCC(NS(C)(=O)=O)CC2)c2c3c(sc2n1)CCC3`: the viability in assay [1] came to 85%. Further, in assay [2], the fold increase was 0.99 and the compound was classed as inactive.

As for `CS(=O)(=O)CCC(=O)Nc1nc2c(s1)CCC2`, in assay [1], the viability was determined as 92%. Besides, in assay [2], the fold increase came to 1.13 and the compound was classed as inactive.

Take `O=S(=O)(c1ccc(S(=O)(=O)N(Cc2ccc3c(c2)OCO3)C2CCCC2)cc1)N1CCCC1`: in assay [1], the viability came out at 98%. For the same compound, in assay [2], the fold increase came out at 0.96 and the outcome was inactive.

In the case of `CNC(=O)CN(C)c1ncnc2sc3c(c12)CCCC3`, the viability in assay [1] was found to be 94%. Moreover, in assay [2], the fold increase is 1.01 and the compound was classed as inactive.

With `Nc1nccnc1C(=O)N1CCN(c2nccs2)CC1`, in assay [1], the viability came to 79%. Moreover, in assay [2], the fold increase was 1.03 and the compound was classed as inactive.

Take `CC[C@H](C)[C@H]1O[C@]2(CC[C@@H]1C)C[C@@H]1C[C@@H](C/C=C(\C)[C@@H](O[C@H]3C[C@H](OC)[C@@H](O[C@H]4C[C@H](OC)[C@@H](O)[C@H](C)O4)[C@H](C)O3)[C@@H](C)/C=C/C=C3\CO[C@@H]4[C@H](O)C(C)=C[C@@H](C(=O)O1)[C@]34O)O2`: the viability in assay [1] is 25% [measured here: primary viability 25 uM, at 25 µM, library dosed in µM] and 48% [measured here: primary viability 25 uM, at 25 µM, library dosed in µM]. In assay [2], the fold increase is 0.61 [measured here: primary screen single dose 25 uM, at 25 µM, library dosed in µM, stronger effect = higher value] and 0.72 [measured here: primary screen single dose 25 uM, at 25 µM, library dosed in µM, stronger effect = higher value]; the outcome was “inactive [library dosed in µM]”.

Regarding `COCCN1C(=O)C(=O)/C(=C(/O)c2ccccc2)C1c1cccc(Oc2ccccc2)c1` (stereo unspecified), the viability in assay [1] was 106%. In assay [2], the fold increase worked out at 0.99 and the compound was classed as inactive.

Take `Cc1cc(C(=O)Cn2nnn(-c3cccs3)c2=O)c(C)n1CCc1cccs1`: the viability in assay [1] worked out at 91%. For the same compound, in assay [2], the fold increase was 0.85 and the call was inactive.

On to `O=C(CSc1nc(O)cc(=O)n1C1CCCC1)NC12CC3CC(CC(C3)C1)C2`, for which, in assay [1], the viability turned out to be 85%. In addition, in assay [2], the fold increase was 0.96 and the compound was called inactive.

As for `CCSc1nnc(SC(C)c2ccc(F)cc2)s1` (stereo unspecified), the viability in assay [1] stood at 77%. In assay [2], the fold increase stood at 0.8 and the call was inactive.

As for `O=C(CC1CC2CCC1C2)N1CCN(c2cnccn2)CC1` (stereo unspecified), the viability in assay [1] was 83%. In assay [2], the fold increase was 1 and the call was inactive.

Consider `O=C(CC1CC2CCC1C2)Nc1cc(NC(=O)c2ccc3c(c2)OCO3)ccc1F` (stereo unspecified), for which the viability in assay [1] stood at 78%. Moreover, in assay [2], the fold increase came to 0.79 and the result was inactive.

Turning to `CCc1nc2ccccc2n1CCOc1ccc(Br)cc1`, the viability in assay [1] was 81%. In assay [2], the fold increase was found to be 0.89 and the compound was called inactive.

As for `COc1cc(F)c(S(=O)(=O)Nc2ccc3c(c2)OC2(CCCCC2)O3)cc1OC`, the viability in assay [1] came out at 85%. Moreover, in assay [2], the fold increase is 0.93 and the compound was classed as inactive.

On to `CCN(CC)S(=O)(=O)c1cc2c(cc1Br)NC(=O)CO2`, for which the viability in assay [1] came out at 92%. For the same compound, in assay [2], the fold increase was found to be 1.02 and the call was inactive.

In the case of `CSCCSc1nnc(-c2ccccc2)n1-c1ccc(Cl)cc1`, the viability in assay [1] was determined as 81%. For the same compound, in assay [2], the fold increase amounted to 0.92 and the compound was classed as inactive.

`C=CCn1c(C)cc(C(=O)COc2ccc3oc4c(c3c2)CCCC4)c1C`: the viability in assay [1] is 84%. In assay [2], the fold increase came out at 0.97 and the compound was called inactive.

For `N#CCSc1nc2sc3c(c2c(=O)n1C1CCCC1)CCCC3`, in assay [1], the viability turned out to be 80%. Further, in assay [2], the fold increase was 0.98 and the compound was called inactive.

For the compound `CCOC(=O)C1SC(SCc2cc(C(=O)OC)c(C)o2)=NC1=O` (stereo unspecified), the viability in assay [1] came out at 99%. In assay [2], the fold increase was found to be 1.01 and the result was inactive.

As for `CN1C(=O)C(=O)N(CCOc2ccc(Cl)cc2Br)C1=O`, the viability in assay [1] was 90%. Also, in assay [2], the fold increase was 0.98 and the outcome was inactive.

Take `Clc1ccc(-c2csc(NC3CC3)n2)cc1Cl`: the viability in assay [1] amounted to 99%. Further, in assay [2], the fold increase was found to be 0.91 and the result was inactive.

For the compound `CC(c1nc(C(C)(C)C)no1)N1CCN(c2ccccc2F)CC1` (stereo unspecified), the viability in assay [1] stood at 87%. In assay [2], the fold increase came out at 0.89 and the compound was classed as inactive.

Consider `CC(=O)c1c(C)[nH]c(C(=O)C(C)N2CCN(C(=O)C3CC3)CC2)c1C` (stereo unspecified), for which, in assay [1], the viability is 78%. For the same compound, in assay [2], the fold increase stood at 0.82 and the compound was classed as inactive.

Regarding `CS(=O)(=O)N1CCN(c2ccc(Br)cc2[N+](=O)[O-])CC1`, the viability in assay [1] was 103%. Also, in assay [2], the fold increase worked out at 0.92 and the compound was classed as inactive.

In the case of `Cc1cc(C(=O)OC(C)C(N)=O)c(C)n1CC(F)(F)F` (stereo unspecified), in assay [1], the viability came out at 88%. Further, in assay [2], the fold increase amounted to 1.05 and the outcome was inactive.

Regarding `Cc1cc(CN2CCN(CCS(=O)c3ccccc3)CC2)on1` (stereo unspecified), the viability in assay [1] turned out to be 90%. For the same compound, in assay [2], the fold increase stood at 1.09 and the compound was called inactive.

Take `C=CCn1c(-c2cccnc2)nn(CN2CCc3ccccc3C2)c1=S`: in assay [1], the viability was 111%. Also, in assay [2], the fold increase was found to be 1.12 and the call was inactive.

Turning to `CN1N=C(C(=O)Nc2ccc3c(c2)OC2(CCCC2)O3)CCC1=O`, the viability in assay [1] stood at 92%. In addition, in assay [2], the fold increase stood at 0.97 and the call was inactive.

On to `Cc1cc(C)n2nc(SCC(=O)c3ccc(Br)cc3)nc2n1`, for which the viability in assay [1] worked out at 76%. Moreover, in assay [2], the fold increase turned out to be 0.93 and the call was inactive.

Take `CC1CCc2c(sc3nc(-c4cccnc4)nc(N4CCNC(=O)CC4)c23)C1` (stereo unspecified): in assay [1], the viability was 84%. Moreover, in assay [2], the fold increase is 0.94 and the result was inactive.

On to `COc1ccc(C23CC4CC(CC(C(=O)OC5CCOC5=O)(C4)C2)C3)cc1` (stereo unspecified), for which the viability in assay [1] worked out at 108%. Further, in assay [2], the fold increase stood at 1.12 and the outcome was inactive.

With `Cc1ccc(-c2nc(-c3ccc(C(C)(C)C)cc3)c(C)s2)cc1`, in assay [1], the viability was found to be 96%. Further, in assay [2], the fold increase is 1.12 and the result was inactive.

As to `N#CC1(c2nc3ccccc3s2)Cc2cc([N+](=O)[O-])ccc2N2CCCCC21` (stereo unspecified), the viability in assay [1] stood at 88%. In assay [2], the fold increase turned out to be 1.17 and the compound was called inactive.
